According to patent US7109214B2, “Substituted cyclopentene compounds” (Grunenthal GmbH, priority 2004, dated 2006):

Molecular target: T1, CGRP1 receptors (Cavia porcellus, UniProt H0UV86+Q8R4C6)
T1 sequence (H0UV86 23-464): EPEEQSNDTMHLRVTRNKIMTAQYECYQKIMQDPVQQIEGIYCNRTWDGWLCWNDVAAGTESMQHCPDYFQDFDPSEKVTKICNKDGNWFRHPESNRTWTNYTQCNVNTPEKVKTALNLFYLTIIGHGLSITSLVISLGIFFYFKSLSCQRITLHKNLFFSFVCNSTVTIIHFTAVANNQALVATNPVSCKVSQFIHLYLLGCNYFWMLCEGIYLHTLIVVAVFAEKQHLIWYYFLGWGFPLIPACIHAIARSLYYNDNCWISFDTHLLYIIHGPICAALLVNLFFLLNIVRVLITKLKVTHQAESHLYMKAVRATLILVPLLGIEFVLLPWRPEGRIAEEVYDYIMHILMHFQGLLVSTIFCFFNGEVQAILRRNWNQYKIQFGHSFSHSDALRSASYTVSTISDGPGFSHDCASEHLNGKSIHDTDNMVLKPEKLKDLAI
T1 sequence (Q8R4C6 27-148): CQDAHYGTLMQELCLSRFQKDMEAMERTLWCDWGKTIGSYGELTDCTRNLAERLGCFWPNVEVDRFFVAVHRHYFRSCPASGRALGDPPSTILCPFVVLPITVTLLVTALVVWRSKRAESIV
Assay: CGRP receptor affinity on isolated, spontaneously beating guinea pig atrium
Conditions: in the presence of vehicle solution
Method: J. Physiol. Pharmacol. 75: 671–6,1997. The corresponding literature description is hereby introduced as a reference and is deemed to be part of the disclosure.
The exposure time for each concentration level is 2 minutes.
The validation and investigation of the substituted cyclopentene compounds according to the invention for their antagonistic action proceeded in accordance with the above-described method.

In the case of “h-α-CGRP: human α-CGRP, agonist that increases the frequency of beating of guinea pig atria [reference compound]”, the “Increase in frequency of beating of the isolated atria” value is reported as “approx. 35%”.
